Test results published in PubChem BioAssay AID540295 (The Scripps Research Institute Molecular Screening Center, 2011).
The entries are a selection whose mix differs from that of the whole data set. Some results for these compounds are left out of this collection, so the calls shown say nothing about other tests. Calls of active or inactive are those of the source.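 Rule for the calls: active = inhibition above its plate's cutoff, the mean of tested wells on that plate plus 3 SD (cut at about 29% in these data); inactive = the rest.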

Protein sequences, listed by entry. Tags and fused reporters are not part of them.
UniProt P32245, whole entry: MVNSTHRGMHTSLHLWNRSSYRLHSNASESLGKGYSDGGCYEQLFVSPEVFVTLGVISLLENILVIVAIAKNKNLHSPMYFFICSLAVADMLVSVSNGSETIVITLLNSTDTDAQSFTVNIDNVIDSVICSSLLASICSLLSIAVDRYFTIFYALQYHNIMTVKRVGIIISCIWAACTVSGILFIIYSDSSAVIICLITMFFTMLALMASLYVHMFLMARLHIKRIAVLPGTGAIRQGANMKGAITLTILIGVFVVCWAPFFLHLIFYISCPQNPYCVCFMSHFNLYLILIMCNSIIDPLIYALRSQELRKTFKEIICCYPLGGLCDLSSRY

biological target: Melanocortin receptor 4 (Homo sapiens) (UniProt P32245); assay: blockers of MC4R Gs-cAMP response – cell-based, TR-FRET, antagonist arm of biased-ligand search, primary screen (AID 540295); conditions: MC4R-expressing cells, MTII-stimulated cAMP, LANCE TR-FRET; at 6.5 µM; hits give high values;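 note: 0% = Melanotan II alone and 100% = Melanotan II plus saturating MCL0020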

| Compound | inhibition |
| --- | --- |
| COc1ccc(Br)c(C(=O)NCC2(N3CCCCC3)CCCCC2)c1 | inactive: -0.22% |
| C=C(C)C#CC(O)(C(=O)OC1CCN(C)CC1)c1ccccc1 (stereo unspecified) | inactive: -4.67% |
| CN(C)c1cccc(C(=O)NCC2(N(C)C)CCCCC2)c1 | inactive: 8.88% |
| O=C(OCCN1CCCC1)C(O)(c1ccccc1)c1ccccc1 | inactive: -1.99% |
| CC(C)Oc1ccc(C(=O)NCC2(N(C)C)CCCCC2)cc1 | inactive: -2.46% |
| O=C(OC1CN2CCC1CC2)C(CO)(c1ccccc1)c1ccccc1 (stereo unspecified) | inactive: 8.9% |
| COc1ccc(Cl)cc1C(=O)NCC1(N(C)C)CCCCC1 | inactive: 4.35% |
| COc1cccc(C(=O)NCC2(N3CCCCC3)CCCCC2)c1 | inactive: 3.35% |
| O=C(NCC1(N2CCCCC2)CCCCC1)c1cccc(Cl)c1 | inactive: 5.16% |
| CN(C)C1(CNC(=O)c2ccc(Br)cc2)CCCCC1 | inactive: 5.08% |
| COc1cc(C(=O)NCC2(N(C)C)CCCCC2)c([N+](=O)[O-])cc1OC | inactive: -4.34% |
| O=C(NCC1(N2CCCCC2)CCCCC1)c1cc(F)c(F)cc1Cl | inactive: -1.24% |
| C=CCN1CCN(CCOC(=O)C(O)(c2ccccc2)c2ccccc2)CC1 | inactive: 15.5% |
| O=C(NCC1(N2CCCCC2)CCCCC1)c1cccc(Br)c1 | inactive: -5.05% |
| CCN1CCCC(OC(=O)C2(O)c3ccccc3C=Cc3ccccc32)C1 (stereo unspecified) | inactive: -1.63% |
| Cc1cc(C(=O)NCC2(N3CCCCC3)CCCCC2)ccc1[N+](=O)[O-] | inactive: 1.82% |
| COc1ccc(C(=O)NCC2(N(C)C)CCCCC2)cc1 | inactive: 7.9% |
| CN(C)c1ccc(C(=O)NCC2(N(C)C)CCCCC2)cc1 | inactive: -1.51% |
| CN(C)C1CCCC1OC(=O)C(O)(c1ccccc1)c1ccccc1 (stereo unspecified) | inactive: 17.8% |
| Cc1ccccc1C(=O)NCC1(N2CCCCC2)CCCCC1 | inactive: 4.44% |
| CC(C)N1C(=O)CC2(CCN(CCOC(=O)C(O)(c3ccccc3)c3ccccc3)CC2)C1=O | inactive: 10.5% |
| COc1cc(SC)ccc1C(=O)NCC1(N(C)C)CCCCC1 | inactive: 0.46% |
| CCN(CC)CC(C)C(C)OC(=O)C(O)(c1ccccc1)c1ccccc1 (stereo unspecified) | inactive: 5.68% |
| Cc1ccc(C(=O)NCC2(N3CCCCC3)CCCCC2)cc1 | inactive: 9.8% |
| O=C(NCC1(N2CCCCC2)CCCCC1)c1cc([N+](=O)[O-])ccc1Cl | inactive: 8% |
| CN1[C@@H]2CC[C@H]1CC(OC(=O)C(O)(c1ccccc1)c1ccccc1)C2 (stereo partly specified) | inactive: 12.5% |
